Assay results: US7704701B2, “Diagnosis of prostate cancer with SPAS-1 cancer antigen” (The Regents of the University of California, priority 2000, dated 2010)

Test system: TRAMP-C2
Assay: Adoptive transfer of TRAMP-specific T cells into mice bearing TRAMP-C2
Assay type: in vivo, C57BL6 mice
Details: during the two weeks of treatment; IL-2 daily day 0 to day 14
Procedure: On day 0, C57BL6 mice were injected subcutaneously with 4×10^6 TRAMP-C2 CD8^+ T cells. On day 0 and 14 the mice received 2×10^6 TRAMP-specific T cells in PBS or PBS alone intravenously. In order to provide a source of T cell help to the TRAMP-specific CD8^+ T cells the mice were injected daily from day 0 to day 14 with 10000 U of recombinant human IL-2 in PBS subcutaneously.

## IL-2: recombinant human IL-2
  mice remaining tumor free: 60%
